This note sets out measurements from article PMC2736829.

The target of this experiment is recombinant extracellular carbonic anhydrase (CA) domain of human CA IX (aa 120-397) with C-terminal 6xHis-tag (human) (UniProt Q16790). Kind of experiment: SEC + other: SDS-PAGE; purified recombinant CA IX domain; Superdex 200 HR 10/30; SDS-PAGE under non-reducing and reducing conditions; covalent dimer.

Regarding “recombinant extracellular carbonic anhydrase (CA) domain of human CA IX (aa 120-397) with C-terminal 6xHis-tag (from UniProt Q16790 120-397) (domain or fragment)”, the percent covalent homodimer was 75% and the stoichiometry N (as a rule, the number of molecules, sites or subunits per partner or assembly) came to 2.
